AlphaSeq binding of Ab-95 light chain variants to a spike HR2 peptide

Target peptide (SARS-CoV-2 spike, HR2 region): PDVDLGDISGINAS

Ab-95 is the parent antibody, in scFv form: VH, then three GGGGS repeats, then VL. The heavy chain is unchanged in all variants.
VH: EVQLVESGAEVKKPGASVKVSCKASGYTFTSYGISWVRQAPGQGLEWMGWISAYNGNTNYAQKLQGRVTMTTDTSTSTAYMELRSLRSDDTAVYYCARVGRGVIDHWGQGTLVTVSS
VL: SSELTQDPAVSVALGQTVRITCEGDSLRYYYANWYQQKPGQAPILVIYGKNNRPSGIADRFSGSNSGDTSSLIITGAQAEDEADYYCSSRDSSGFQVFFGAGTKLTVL

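The starting antibody came from a phage panning campaign against this peptide. The library (AAYL52) carries one to three amino acid substitutions per variant, with no insertions or deletions. Affinity was read by AlphaSeq, a pooled yeast mating assay with surface-displayed partners. Pairs that bind mate more often; barcode pairs of the diploids are counted by sequencing. Read counts were normalised to the haploid input and turned into Kd by a linear fit to BCL2-family pairs of known affinity, for each replicate. Each pool was mated in three replicate cultures.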

The parent's light chain CDRs are EGDSLRYYYAN, GKNNRPS, SSRDSSGFQVF; each variant's own CDRs replace them letter for letter.
Affinities are written as log10 Kd with Kd in nM; a lower number is a better binder.
Where no diploid with the target was found in that replicate, the entry reads "nd": below detection, most likely a poor binder, though not proof of it.

The variant EDDSLRYYYAN, GKNNTPS, SDRDSSGFQVF gave nd, 5.17, 3.39 (controls 2 of 9).
The variant EGDSLRYWYAN, GKNNRPS, SLWDSSGFQVF gave 3.13, 3.07, 2.36 (controls 1 of 9).
The variant EGDSLRYYYAN, GKNNRPS, SSRDSSQFQVV gave nd, nd, nd (controls 1 of 9).
The variant EGDSLRYYYAN, GKNKRPS, SSRDSSGFQVE gave 3.69, 3.61, 3.46 (controls 2 of 9).
The variant ECASLRYYYAN, WKNNRPS, SSRDSSGFQVF gave 3.19, nd, nd (controls 2 of 9).
The variant EGDSLRYMYAN, GKNNRPS, SSRDSSGNQSF gave 1.57, 1.93, 1.52 (controls 3 of 9).
The variant EGDSLRYYYYH, GENNRPS, SSRDSSGFQVF gave nd, nd, nd (controls 1 of 9).
The variant EGDSLRMYYAC, GKNNRPS, SSRDGSGFQVF gave 5.36, 3.84, 2.96 (controls 4 of 9).
The variant EGMSLRYIYAN, GKNNRPS, SSRDSSGFWVF gave 5.05, 3.41, nd (controls 2 of 9).
The variant EGDSLIYYYAN, GSSNRPS, SSRDSSGFQVF gave 3.23, 3.54, 4.07 (controls 5 of 9).
The variant EGDSLRYYYAN, GKNNIPS, SWRDSGGFQVF gave 3.18, nd, nd (controls 2 of 9).
The variant EGDSLRYYYAN, YKNNRPS, SRRDPSGFQVF gave nd, nd, nd (controls 3 of 9).
The variant EGDSLRYIYAN, GKNNRPS, SSRDSSEFIVF gave 2.70, 4.63, 3.21 (controls 4 of 9).
The variant TGDSLMYYYQN, GKNNRPS, SSRDSSGFQVF gave 3.61, nd, 4.48 (controls 2 of 9).
The variant EGESLRYAYAN, GKNNRPS, SCRDSSGFQVF gave 0.79, 0.56, 0.08 (controls 5 of 9).
The variant EGDSLRYYYAN, HKNNRPQ, QSRDSSGFQVF gave 2.63, 2.67, 2.51 (controls 0 of 9).
The variant EGDSLRYYYAN, GKAARPS, SSRDSSGGQVF gave 4.00, 3.88, 4.33 (controls 6 of 9).
The variant EGDSLRTYQAN, GKNNRPS, SSRDSSGFQWF gave 1.46, 1.48, 0.83 (controls 6 of 9).
The variant EGRSLRYYYAN, GKNNRPG, SSRDSSGFQVF gave 2.90, 2.78, 2.60 (controls 2 of 9).
The variant EGDSLRYYYAC, GKNNRPS, SSRDWSVFQVF gave nd, 3.58, nd (controls 2 of 9).
The variant ESDIQRYYYAN, GKNNRPS, SSRDSSGFQVF gave 2.77, 2.69, 3.21 (controls 6 of 9).
The variant EGPSLRYYYAN, GKNNRPI, SSRDSSGFSVF gave 2.69, 2.85, 3.53 (controls 1 of 9).
The variant FGDSLRYYYAN, GHNNRPS, SSRDSSLFQVF gave 3.36, 5.41, nd (controls 2 of 9).
The variant EVDSLRYYYAN, GKNNRPS, TSRDSSGFPVF gave nd, 4.68, nd (controls 3 of 9).
The variant EGDSMRYYIAN, GKNNWPS, SSRDSSGFQVF gave nd, nd, 4.06 (controls 2 of 9).
The variant EGDSLRYYYAN, GKNKRPS, SSRDSMGFQVF gave 3.75, 3.99, 3.58 (controls 3 of 9).
The variant EGDSLMYYYAH, GKNRRPS, SSRDSSGFQVF gave 4.37, nd, nd (controls 0 of 9).
The variant FGDSLRYYYAN, GWNNRPS, SSRDSSGFHVF gave 5.29, nd, nd (controls 0 of 9).
The variant EGDSLRYYYNN, GKNNHPS, SSRASSGFQVF gave 4.08, nd, nd (controls 2 of 9).
The variant EGDSLRYYYAK, GKVNRPS, SSRVSSGFQVF gave 4.02, nd, 3.53 (controls 7 of 9).
The variant EGYSLRYYEAN, GKNNRRS, SSRDSSGFQVF gave 2.23, 2.80, 2.17 (controls 1 of 9).
The variant EGDSLRYYYAN, GKNNRPV, SSNDSSGFQVF gave 2.69, 2.36, 1.81 (controls 3 of 9).
The variant EGDSLRYYYAN, GKPNRPS, VSRDSSGFQVF gave 4.13, 5.52, nd (controls 5 of 9).
The variant AGDSLRYYYAN, GKNNRPS, SMRDSSGFQVF gave 3.92, 3.30, 3.21 (controls 3 of 9).
The variant FGDSLRYYYAN, GKNNRPS, SPRRSSGFQVF gave nd, nd, nd (controls 3 of 9).
The variant EGDSLEYYYAN, GGNNRPS, SMRDSSGFQVF gave 3.40, 2.45, 2.36 (controls 2 of 9).
The variant AGDSLRYYYAN, GKNNPPS, SSRNSSGFQVF gave nd, nd, nd (controls 3 of 9).
The variant EGDSWRYYYAN, GKTNRPS, SSRDSSGFQKF gave 5.39, nd, nd (controls 0 of 9).
The variant EGDSLRDYYAY, GKNNRPS, SSRHSSGFQVF gave nd, nd, 3.86 (controls 4 of 9).
The variant EGDSLRYYYAN, GKYVRWS, SSRDSSGFQVF gave nd, nd, nd (controls 3 of 9).
The variant EGDSLRYYYAN, GKNNRVS, SSRDSSGFQSC gave 2.80, 2.88, 2.77 (controls 5 of 9).
The variant WGDSLRYYYAN, GKNNRPA, SSRDSSFFQVF gave 3.83, 4.46, 4.50 (controls 2 of 9).
The variant EGDSLRYVYAN, GKNNRPS, SSRDSSGFDFF gave 1.84, 1.78, 1.32 (controls 6 of 9).

Extract of 6 entries:

For EGDSLRYYYAN, GKNKRPS, SSRDSMGFQVF, the assay gave 3.75, 3.99, 3.58 (controls 3 of 9).
For FGDSLRYYYAN, GWNNRPS, SSRDSSGFHVF, the assay gave 5.29, nd, nd (controls 0 of 9).
For EGDSLRYVYAN, GKNNRPS, SSRDSSGFDFF, the assay gave 1.84, 1.78, 1.32 (controls 6 of 9).
For EGDSLRYYYAN, GKNNIPS, SWRDSGGFQVF, the assay gave 3.18, nd, nd (controls 2 of 9).
For EGDSLIYYYAN, GSSNRPS, SSRDSSGFQVF, the assay gave 3.23, 3.54, 4.07 (controls 5 of 9).
For EGDSLRYYYAK, GKVNRPS, SSRVSSGFQVF, the assay gave 4.02, nd, 3.53 (controls 7 of 9).

For reference, the parent read 2.31 as the reference entry and 2.25 as a member of this library.
As a blank, each scFv also met three strains without target: over library AAYL52, 28% of these pairings were detected, typically at 3.91 and seldom below 2.90. For each scFv, signals with the empty controls are counted beside the result.

Values reported by Engelhart et al. 2022, doi:10.1038/s41597-022-01779-4 (FLAb copy).